7 compounds from PubChem BioAssay AID411 (National Center for Advancing Translational Sciences (NCATS), 2006) can be followed below.

Protein sequences, listed by entry. Tags and fused reporters are not part of them.
UniProt P08659, whole entry: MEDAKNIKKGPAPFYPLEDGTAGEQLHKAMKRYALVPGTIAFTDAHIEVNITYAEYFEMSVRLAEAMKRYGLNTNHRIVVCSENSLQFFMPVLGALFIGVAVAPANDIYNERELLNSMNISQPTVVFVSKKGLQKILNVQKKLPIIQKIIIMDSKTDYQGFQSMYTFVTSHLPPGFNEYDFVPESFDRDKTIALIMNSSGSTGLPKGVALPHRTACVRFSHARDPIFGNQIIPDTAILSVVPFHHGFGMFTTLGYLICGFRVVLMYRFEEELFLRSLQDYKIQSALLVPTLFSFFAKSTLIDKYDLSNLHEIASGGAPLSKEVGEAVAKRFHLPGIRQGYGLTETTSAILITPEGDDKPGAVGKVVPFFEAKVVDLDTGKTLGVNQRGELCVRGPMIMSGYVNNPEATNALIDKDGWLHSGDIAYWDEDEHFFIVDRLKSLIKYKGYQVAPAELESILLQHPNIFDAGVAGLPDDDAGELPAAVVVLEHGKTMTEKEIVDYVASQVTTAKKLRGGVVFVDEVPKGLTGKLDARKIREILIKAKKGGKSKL

Only a part is listed here, and it is no random draw. Calls of active or inactive are those of the source. Calls come from the whole dose curve; as a rule, active = well fitted inhibition curve with a large enough effect; inconclusive = small, poorly fitted or top-dose-only effect; inactive = flat fitted curve, though single readings scatter.
% is set by controls: 0 for no effect and ±100 for the full control effect.

The test has as its target Luciferin 4-monooxygenase (Photinus pyralis) (UniProt P08659). Description: qHTS Assay for Inhibitors of Firefly Luciferase. Note: nearly all actives have a fitted effect of over 40% in size. Conditions: purified firefly luciferase, luminescence, 8 min; at 57.1 µM (top of the series) unless noted. On the procedure: To aid in the interpretation of high-throughput screening (HTS) results derived from luciferase-based assays, we used quantitative HTS, an approach that defines the concentration-response behavior of each library sample, to profile the ATP-dependent luciferase from Photinus pyralis against more than 72 000 samples. Luciferase (PKLight, Cambrex Corporation) was assayed for its ability to generate light using ATP and luciferin as substrates. The ATP concentration in the assay (10 uM) was within the linear range of enzyme activity for the assay conditions used. See following reference for further details: [1] Auld DS, Southall NT, Jadhav A, Johnson RL, Diller DJ, Simeonov A, Austin CP, Inglese J. Characterization of chemical libraries for luciferase inhibitory activity. J Med Chem. 2008 Apr 24;51(8):2372-86. Auld DS, Zhang YQ, Southall NT, Rai G, Landsman M, Maclure J, Langevin D, Thomas CJ, Austin CP, Inglese J. A Basis for Reduced Chemical Library Inhibition of Firefly Luciferase Obtained from Directed Evolution. J. Med. Chem., 2009, 52 (5), pp 1450#1458 [3] Auld DS, Thorne N, Nguyen DT, Inglese J. A specific mechanism for nonspecific activation in reporter-gene assays. ACS Chem Biol. 2008 Aug 15;3(8):463-70. Auld DS, Thorne N, Maguire WF, Inglese J. Mechanism of PTC124 activity in cell-based luciferase assays of nonsense codon suppression. Proc Natl Acad Sci U S A. 2009 Mar 3;106(9):3585-90. Inglese J, Auld DS, Jadhav A, Johnson RL, Simeonov A, Yasgar A, Zheng W, Austin CP. Quantitative high-throughput screening: a titration-based approach that efficiently identifies biological activities in large chemical libraries. Proc Natl Acad Sci U S A. 2006 Aug 1;103(31):11473-8.
Four uL of substrate mix (final concentration, 50 mM imidazole pH 7.2, 50 mM KCl, 7 mM MgCl2, 10 uM ATP, 0.01% Tween 20, 0.05% BSA) was dispensed into white 1536 well plates. Twenty-three nL of compound was delivered by a pin tool and 2 uL of luciferase detector mix (PKLight, Cambrex) was added. Following 8-minute incubation at ambient temperature, luminescence was measured by a ViewLux (Perkin Elmer) at 5 seconds exposure/plate.
For orientation: In qHTS, concentration-response curves come from the screen itself.
As for `NC1CCCCC1.NP(=O)(O)N(CCCl)CCCl`, the activity change, negative = inhibition is inactive: 2.96% [at 11.4 µM]. Take `N#CC1(Nc2ccccc2)CCN(CCc2ccccc2)CC1`: the activity change, negative = inhibition is inactive: -0.613%. Under `O=C(OC1CN2CCC1CC2)C1c2ccccc2Oc2ccccc21` (configuration not stated) stands inactive: -1.76%; under `CCOc1ncccc1C(=O)NCC1(N2CCOCC2)CCCCC1`, inactive: 1.06%.

Regarding `O=C(O)C1(Nc2ccccc2)CCN(Cc2ccccc2)CC1`, the activity change, negative = inhibition was inactive: 3.73% [at 11.4 µM].

On to `Fc1ccccc1NC1CCN(Cc2ccccc2)CC1`, for which the activity change, negative = inhibition is inactive: 0.264%. For `N/C(=N\O)c1c(N)no[n+]1[O-]`, the activity change, negative = inhibition was inactive: 2.47%.
